# Measured affinities in a library of Ab-91 heavy chain variants

Reference: Engelhart et al. 2022, doi:10.1038/s41597-022-01779-4. File: FLAb, binding data.

All variants were tested on one target, the spike HR2 peptide PDVDLGDISGINAS (SARS-CoV-2).

The variants keep the light chain, the linker and the frameworks of Ab-91 (scFv order VL, the linker GGGGSGGGGSGGGGS, VH).
VL: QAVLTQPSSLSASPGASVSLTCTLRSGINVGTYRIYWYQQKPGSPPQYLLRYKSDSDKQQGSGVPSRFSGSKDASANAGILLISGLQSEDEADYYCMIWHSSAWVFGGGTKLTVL
VH: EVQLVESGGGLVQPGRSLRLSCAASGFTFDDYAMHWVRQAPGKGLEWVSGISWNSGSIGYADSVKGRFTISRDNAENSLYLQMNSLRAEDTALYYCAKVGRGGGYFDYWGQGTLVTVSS

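Phage display of a naive human antibody library on the peptide gave the parent. The library (AAYL51) carries one to three amino acid substitutions per variant, with no insertions or deletions. In AlphaSeq, yeast of one mating type display the scFv and yeast of the other type display the target. After mating in shaken culture at 30 °C for 16 h, diploids were selected and their barcode pairs sequenced. The ratio of observed to expected reads was calibrated, replicate by replicate, on BCL2-family standards whose Kd was known from biolayer interferometry. There are three technical replicates.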

Positions count from residue 1 of the parent VH; D31A puts A in place of D. Affinities are written as log10 Kd with Kd in nM; a lower number is a better binder. Replicates are averaged; those with no signal do not enter the mean. "not detected" means that the variant was in the library but no mating with the target was seen in any replicate; the authors take this as a sign of poor binding, and no number exists. Order: sorted from the lowest average up, undetected variants last. Empty control strains, which show no peptide, gave a signal in 21% of pairings with library AAYL51; the median was 4.54 and 95% of these signals were weaker than 3.26. No background was subtracted. For reference, the parent read 1.86 as the reference entry and 0.88 as a member of this library.

changes	mean, log10 nM	detected
D31A/G103F/F106Q	0.39	3 of 3
D31H/G56I	0.52	3 of 3
G56E/K65V/Y105M	1.59	3 of 3
T28K/D30S/G56L	1.78	3 of 3
S57A/Y108G	2.05	3 of 3
W53Y/S63R/V64S	2.55	3 of 3
D31Q/A33S/N54M	2.61	3 of 3
M34C/V99Q/G100S	2.74	1 of 3
Y32N/G56A/S63R	2.77	3 of 3
S63V/V64A/G102I	3.05	3 of 3
T28C/S52N/Y60V	3.50	3 of 3
T28G/D62H/K65C	3.66	2 of 3
D30C/I58Y/D107W	4.09	1 of 3
G56H/S63Q/V99N	4.12	2 of 3
N54H/Y105D	4.21	3 of 3
A33G/S55I/S63L	4.31	1 of 3
D30G/A61K/G100V	4.36	3 of 3
W53H/G59Q/S63D	4.41	2 of 3
H35G/N54D/Y108I	4.63	3 of 3
G26R/D30W/G100S	4.83	3 of 3
V64E/G100M	4.97	3 of 3
S55G/G56W/S57F	5.02	2 of 3
F29L/M34V/A61S	5.06	3 of 3
M34C/S52W	5.06	2 of 3
S52T/S57L/Y108R	5.15	1 of 3
T28V/N54Y/Y105M	5.17	2 of 3
G26E/M34N/D62P	5.21	3 of 3

The remaining entries, values ahead:

mean, log10 nM	detected	changes
5.29	3 of 3	D30S/H35S/G104S
5.34	3 of 3	F27G/N54Q/S57K
5.46	3 of 3	W53V/S55R/S63G
5.53	2 of 3	F29G/G56F/V64K
5.57	3 of 3	G26R/S55K/G103K
5.84	1 of 3	S52T/I58L/A61T
6.41	1 of 3	D30M/G59V/G104L
not detected	0 of 3	F27W/D31G/Y32P
not detected	0 of 3	M34E/H35E/V99I
not detected	0 of 3	S52E/Y105T/F106K
not detected	0 of 3	G56I/V99W/G103Y
not detected	0 of 3	F27Q/V99K/G102W
not detected	0 of 3	S57I/G103R/F106P
not detected	0 of 3	F27Y/W53Y/D62W
not detected	0 of 3	F27C/Y105I
not detected	0 of 3	G50P/Y60I/G100T
not detected	0 of 3	Y32G/R101L
not detected	0 of 3	F27I/D62F/V99P
not detected	0 of 3	I51K/S52T/V99E
not detected	0 of 3	Y32A/S52L/S57N
not detected	0 of 3	W53Y/S55Y/Y60S
not detected	0 of 3	G50P/W53S
not detected	0 of 3	S57L/G59R/Y105K
not detected	0 of 3	H35L/Y105C
not detected	0 of 3	M34I/S55C/G102P
not detected	0 of 3	F27Y/K65E/G104W
not detected	0 of 3	M34S/G56L/A61Q

Excerpt, the final 3 entries:

changes	mean, log10 nM	detected
M34I/S55C/G102P	not detected	0 of 3
F27Y/K65E/G104W	not detected	0 of 3
M34S/G56L/A61Q	not detected	0 of 3